Experimental data as given in patent publication US7205343B2, “Stabilized bioactive preparations and method of use” (priority 1997, dated 2007).

Test: Gentamicin biodistribution in lung lobes by immunoassay
Assay type: in vivo, New Zealand white rabbits
Conditions: rabbits, one hour post-administration
Method: Comparison of biodistribution in New Zealand white rabbits at one hour post-administration of 5 mg/kg gentamicin by either IM or LDI methods was performed. The gentamicin was administered in an LDI volume of only 1.8 ml/kg. Individual lobes of the lungs were collected and analyzed quantitatively for gentamicin by an immunoassay method. The lung gentamicin concentrations were ca. 2 orders of magnitude higher following local administration (LDI) than for IM administration. Excellent biodistribution across the lung lobes was observed following either IM or LDI administration.

gentamicin
Gentamicin in lung, Left Lower (5 mg/kg IM): 6.1 μg gentamicin/g tissue
Gentamicin in lung, Left Upper (5 mg/kg IM): 6.7 μg gentamicin/g tissue
Gentamicin in lung, Right Lower (5 mg/kg IM): 6.4 μg gentamicin/g tissue
Gentamicin in lung, Right Mid (5 mg/kg IM): 6.0 μg gentamicin/g tissue
Gentamicin in lung, Right Upper (5 mg/kg IM): 5.0 μg gentamicin/g tissue
Gentamicin in lung, Left Lower (5 mg/kg LDI, volume 1.8 ml/kg): 412.9 μg gentamicin/g tissue
Gentamicin in lung, Left Upper (5 mg/kg LDI, volume 1.8 ml/kg): 206.3 μg gentamicin/g tissue
Gentamicin in lung, Right Lower (5 mg/kg LDI, volume 1.8 ml/kg): 646.7 μg gentamicin/g tissue
Gentamicin in lung, Right Mid (5 mg/kg LDI, volume 1.8 ml/kg): 564.3 μg gentamicin/g tissue
Gentamicin in lung, Right Upper (5 mg/kg LDI, volume 1.8 ml/kg): 680.5 μg gentamicin/g tissue
